Data as given in ChEMBL document CHEMBL1156817, “Fructose-1,6-bisphosphatase Inhibitors. 2. Design, synthesis, and structure-activity relationship of a series of phosphonic acid containing benzimidazoles that function as 5'-adenosinemonophosphate (AMP) mimics” (J Med Chem, 2010).

Test system: Hepatocyte
Assay: cells
Conditions: Rattus norvegicus

Molecule `CC(C)Cn1c(-c2ccc(P(=O)(O)O)o2)nc2c(N)c(F)cc(Cl)c21` has an IC50 of 3.6 µM.
